“And” between values parts separate entries of the source, which are not always exact repeats. Equal entries are not always repeated.

Amino acid sequences for entries named in this document (tags omitted). A change or cut given only in a name is not applied to a line headed by its entry.
UniProt O15379: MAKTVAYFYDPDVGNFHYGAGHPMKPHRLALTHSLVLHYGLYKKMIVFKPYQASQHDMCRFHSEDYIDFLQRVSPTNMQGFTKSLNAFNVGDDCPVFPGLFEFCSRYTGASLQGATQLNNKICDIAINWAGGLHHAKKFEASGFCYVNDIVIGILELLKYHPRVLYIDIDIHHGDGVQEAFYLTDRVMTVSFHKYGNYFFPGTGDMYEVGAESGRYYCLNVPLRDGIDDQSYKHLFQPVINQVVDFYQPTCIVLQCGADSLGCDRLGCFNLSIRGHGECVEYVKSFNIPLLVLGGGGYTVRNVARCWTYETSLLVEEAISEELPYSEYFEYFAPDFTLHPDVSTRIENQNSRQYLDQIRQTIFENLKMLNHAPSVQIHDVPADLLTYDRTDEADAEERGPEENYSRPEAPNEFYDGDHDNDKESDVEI

Test [1] deals with RBBP4.
Test [2] deals with T1, HDAC10 (Homo sapiens, UniProt Q969S8).
T1 sequence (Q969S8 1-669): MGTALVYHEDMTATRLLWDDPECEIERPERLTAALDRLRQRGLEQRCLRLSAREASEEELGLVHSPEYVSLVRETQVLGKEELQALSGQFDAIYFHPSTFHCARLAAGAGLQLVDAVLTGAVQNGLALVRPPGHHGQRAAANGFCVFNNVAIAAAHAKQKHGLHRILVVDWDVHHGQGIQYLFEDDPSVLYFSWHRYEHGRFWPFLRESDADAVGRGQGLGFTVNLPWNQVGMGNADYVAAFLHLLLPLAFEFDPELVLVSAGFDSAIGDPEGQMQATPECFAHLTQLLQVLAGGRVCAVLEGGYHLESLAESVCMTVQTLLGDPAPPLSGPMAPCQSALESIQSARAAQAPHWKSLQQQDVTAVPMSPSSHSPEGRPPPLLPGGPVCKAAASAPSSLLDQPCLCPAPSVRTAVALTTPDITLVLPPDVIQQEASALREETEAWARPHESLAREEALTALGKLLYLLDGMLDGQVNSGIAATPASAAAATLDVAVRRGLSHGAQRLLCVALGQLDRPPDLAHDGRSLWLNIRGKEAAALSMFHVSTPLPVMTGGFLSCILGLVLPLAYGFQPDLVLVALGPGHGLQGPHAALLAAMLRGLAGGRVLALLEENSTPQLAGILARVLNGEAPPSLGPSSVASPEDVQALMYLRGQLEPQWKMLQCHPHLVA
The test can be described thus: Chemoproteomic binding profiling, K562 cell extract, SAHA/ITF2357 probe matrix (Kd app). On the set-up: used to probe endogenous HDACs in K562 whole cell extracts; endogenous in cells; host or cells: K-562.

In test [3] the target is T2, non-HDAC targets (e.g. BZW2, ISOC2, aldehyde dehydrogenases) (Homo sapiens, UniProt O94788).
T2 construct: endogenous in cells; host or cells: K562 whole cell extract
T2 sequence (O94788 1-518): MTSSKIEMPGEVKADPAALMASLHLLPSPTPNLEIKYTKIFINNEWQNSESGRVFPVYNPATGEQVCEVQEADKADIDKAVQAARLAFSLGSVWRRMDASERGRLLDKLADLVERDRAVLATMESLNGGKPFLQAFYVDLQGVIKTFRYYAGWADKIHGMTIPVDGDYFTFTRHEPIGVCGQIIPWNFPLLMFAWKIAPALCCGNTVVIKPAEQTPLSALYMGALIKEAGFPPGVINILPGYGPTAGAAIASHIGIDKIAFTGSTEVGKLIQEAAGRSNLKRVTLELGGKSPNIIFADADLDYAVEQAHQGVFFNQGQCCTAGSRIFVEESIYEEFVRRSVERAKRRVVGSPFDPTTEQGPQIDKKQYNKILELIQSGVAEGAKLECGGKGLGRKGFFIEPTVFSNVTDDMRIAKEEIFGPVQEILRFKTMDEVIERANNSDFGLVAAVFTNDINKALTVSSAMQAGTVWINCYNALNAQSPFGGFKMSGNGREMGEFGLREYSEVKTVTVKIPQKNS
Described as above. To be noted: protein ALDH1A2; selected HDACi off-targets.

Test [4] addresses T3, non-HDAC targets (e.g. BZW2, ISOC2, aldehyde dehydrogenases) (Homo sapiens, UniProt Q9Y6E2).
T3 construct: endogenous in cells; host or cells: K562 whole cell extract
T3 sequence (Q9Y6E2 1-419): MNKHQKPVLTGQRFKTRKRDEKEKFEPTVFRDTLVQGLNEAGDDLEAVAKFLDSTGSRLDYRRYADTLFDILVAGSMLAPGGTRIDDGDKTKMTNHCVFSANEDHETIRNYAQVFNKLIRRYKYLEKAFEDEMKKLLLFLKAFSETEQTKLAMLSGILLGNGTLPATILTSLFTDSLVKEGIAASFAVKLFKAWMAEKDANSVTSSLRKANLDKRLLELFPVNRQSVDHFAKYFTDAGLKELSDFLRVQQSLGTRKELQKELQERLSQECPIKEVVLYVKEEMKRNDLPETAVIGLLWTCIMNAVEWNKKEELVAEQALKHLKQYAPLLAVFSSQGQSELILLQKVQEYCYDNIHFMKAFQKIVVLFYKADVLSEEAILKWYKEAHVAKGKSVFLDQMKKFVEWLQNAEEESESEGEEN
Described as above. To be noted: protein BZW2; selected HDACi off-targets.

Test [5] addresses T4, non-HDAC targets (e.g. BZW2, ISOC2, aldehyde dehydrogenases) (Homo sapiens, UniProt Q96AB3).
T4 construct: endogenous in cells; host or cells: K562 whole cell extract
T4 sequence (Q96AB3 1-205): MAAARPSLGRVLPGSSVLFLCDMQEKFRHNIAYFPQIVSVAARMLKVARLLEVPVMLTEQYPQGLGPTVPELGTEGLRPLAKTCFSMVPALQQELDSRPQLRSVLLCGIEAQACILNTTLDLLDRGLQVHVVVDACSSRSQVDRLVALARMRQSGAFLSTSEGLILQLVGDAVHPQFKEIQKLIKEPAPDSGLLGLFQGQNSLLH
Described as above. To be noted: protein ISOC2; selected HDACi off-targets.

The target of test [6] is T5, HDAC8 (Homo sapiens, UniProt Q9BY41).
T5 sequence (Q9BY41 1-377): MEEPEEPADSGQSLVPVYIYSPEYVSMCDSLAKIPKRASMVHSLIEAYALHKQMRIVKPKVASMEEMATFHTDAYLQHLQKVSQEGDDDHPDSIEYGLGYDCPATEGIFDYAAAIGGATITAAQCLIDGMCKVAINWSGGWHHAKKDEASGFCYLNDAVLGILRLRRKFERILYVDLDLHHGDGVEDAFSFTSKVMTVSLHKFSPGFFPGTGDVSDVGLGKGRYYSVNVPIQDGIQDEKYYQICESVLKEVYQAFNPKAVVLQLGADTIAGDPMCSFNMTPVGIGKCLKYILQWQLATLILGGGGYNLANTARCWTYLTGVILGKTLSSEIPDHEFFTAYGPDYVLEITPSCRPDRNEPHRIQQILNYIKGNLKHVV
The test is described as above. On the set-up: used to probe endogenous HDACs in K562 whole cell extracts; endogenous in cells; host or cells: K-562. To be noted: read-out: Kd^app HDAC8; protein HDAC8; class I HDAC.

Test [7] addresses T1, HDAC10. The test can be described thus: Competition binding assay in cell lysate, affinity matrix, MS. Details: used to probe endogenous HDACs in K562 whole cell extracts; endogenous in cells; host or cells: K-562. To be noted: K-562 cell lysate.
Test [8] relates to GATAD2A. Kind of test: Competition binding assay in cell lysate, affinity matrix, MS (Mi-2/NuRD interactor). To be noted: K-562 cell lysate.
For test [9], the target named is HDAC3-NCoR complex (Homo sapiens, UniProt O15379). Kind of test: Chemoproteomic binding profiling, K562 cell extract, SAHA/ITF2357 probe matrix (Kd app).
Test [10] addresses HDAC3 (Homo sapiens, UniProt O15379). The description is as above.

Broadly, the IC50 is the point on the concentration scale where inhibition reaches its midpoint. High values mean weaker potency, low ones greater potency. With `O=C(CCCCCCC(=O)Nc1ccccc1)NO` [SAHA, suberoylanilide hydroxamic acid], the IC50 is 0.46 µM and 0.79 µM in test [1]; no less than 10 µM in test [7]; 0.79 µM in [8]. Besides, the Kd in test [2] was 0.78 µM; in [3], 0.5 µM; in [4], 1.97 µM; in [5], 0.03 µM; in [6], greater than 10 µM.
Consider `CCCC(CCC)C(=O)O` [valproate, valproic acid], for which the Kd worked out at 2410 µM in test [9] (Kd^app GPS2); 2870 µM in [9] (Kd^app NCOR1); 4330 µM in test [9] (Kd^app NCOR2); 2880 µM in [9] (Kd^app TBL1X); 1330 µM in [9] (Kd^app TBL1XR1); 4810 µM in test [10].

(Values after patent US20130071854A1, “METHODS FOR THE IDENTIFICATION AND CHARACTERIZATION OF HDAC INTERACTING COMPOUNDS” (priority 2009, published 2013).)
